# Experimental data taken from patent publication US5723719A, “Transgenic mouse as model for diseases involving dopaminergic dysfunction” (Health Research Inc., priority 1995, dated 1998).
# “Also recorded” adds a separate entry of the source.
# Tested on: transgenic mice and control mice
# Details: mouse, in vivo
smiles,measurement,value
CCCN1CCC[C@@H]2Cc3n[nH]cc3C[C@H]21 [quinpirole],"Stereotyped sniffing (summed score, 1 hour)",equivalent dose-related increases in stereotyped sniffing; also recorded: greater sniffing than control mice at the 1.0 mg/kg dose only
